# Yeast mating assay 2: variants of the scFv Ab-95

Values reported by Engelhart et al. 2022, doi:10.1038/s41597-022-01779-4 (FLAb copy).

Target: peptide PDVDLGDISGINAS, taken from heptad repeat 2 (HR2) of SARS-CoV-2 spike.

Parent scFv Ab-95: VH joined to VL by a (GGGGS)3 linker. Changes lie in the light chain CDRs alone.
VH: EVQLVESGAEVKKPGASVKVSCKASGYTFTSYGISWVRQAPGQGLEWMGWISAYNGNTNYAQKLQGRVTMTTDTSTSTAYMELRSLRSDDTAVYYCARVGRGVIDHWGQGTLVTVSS
VL: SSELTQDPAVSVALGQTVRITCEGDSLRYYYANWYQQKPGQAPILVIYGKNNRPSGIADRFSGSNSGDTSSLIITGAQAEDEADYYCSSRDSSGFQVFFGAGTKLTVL

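Phage display of a naive human antibody library on the peptide gave the parent. The library (AAYL52) carries one to three amino acid substitutions per variant, with no insertions or deletions. AlphaSeq pools MATa yeast showing the antibodies with MATalpha yeast showing the peptide. Pairs that bind mate more often; barcode pairs of the diploids are counted by sequencing. Each replicate has its own calibration line, from reference interactions of the BCL2 family. There are three technical replicates.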

Positions count from residue 1 of the parent VL; N33A puts A in place of N. Values are log10 of the apparent Kd in nM; lower means stronger binding. Replicates are averaged; those with no signal do not enter the mean. A pair that was not seen in that replicate is written "ND"; this usually means weak binding, but a binder can also be missed. For reference, the parent read 2.31 as the reference entry and 2.25 as a member of this library. Background: pairings of library AAYL52 with three empty control strains gave a value in 28% of cases (median 3.91, 5th percentile 2.90). Values in that range, when seen in few replicates, are hard to tell from nonspecific mating. The control count says in how many pairings with the empty strains this scFv gave a signal, with their mean in brackets.

{"changes": "N33A/K50D/F98E", "replicates, log10 nM": "3.39 / ND / ND", "mean, log10 nM": "3.39", "empty controls": "3/9 (3.90)"}
{"changes": "Y30T/S55A/S89E", "replicates, log10 nM": "2.61 / 2.70 / 2.27", "mean, log10 nM": "2.53", "empty controls": "3/9 (4.54)"}
{"changes": "P54D/S92K/F98T", "replicates, log10 nM": "3.27 / 4.03 / 3.99", "mean, log10 nM": "3.76", "empty controls": "4/9 (4.14)"}
{"changes": "A32D/S55P/S92E", "replicates, log10 nM": "ND / 4.48 / ND", "mean, log10 nM": "4.48", "empty controls": "2/9 (3.64)"}
{"changes": "A32H/S88K", "replicates, log10 nM": "2.93 / 3.37 / 3.51", "mean, log10 nM": "3.27", "empty controls": "4/9 (4.20)"}
{"changes": "Y29N/D91Q/V97F", "replicates, log10 nM": "1.62 / 1.48 / 0.91", "mean, log10 nM": "1.34", "empty controls": "3/9 (3.74)"}
{"changes": "G49A/R90T", "replicates, log10 nM": "ND / ND / ND", "mean, log10 nM": "ND", "empty controls": "2/9 (3.34)"}
{"changes": "Y29D/S89M", "replicates, log10 nM": "3.02 / 2.63 / 2.21", "mean, log10 nM": "2.62", "empty controls": "5/9 (3.48)"}
{"changes": "K50C/R53D", "replicates, log10 nM": "3.91 / ND / ND", "mean, log10 nM": "3.91", "empty controls": "2/9 (3.94)"}
{"changes": "N33E/S92W/F98A", "replicates, log10 nM": "3.84 / ND / 2.83", "mean, log10 nM": "3.34", "empty controls": "0/9"}
{"changes": "N33F/Q96W/F98I", "replicates, log10 nM": "3.74 / ND / 4.10", "mean, log10 nM": "3.92", "empty controls": "2/9 (3.69)"}
{"changes": "G24A/S88P/G94F", "replicates, log10 nM": "ND / ND / 4.30", "mean, log10 nM": "4.30", "empty controls": "1/9 (3.20)"}
{"changes": "R53C/S55H/F98H", "replicates, log10 nM": "4.59 / 3.74 / 2.85", "mean, log10 nM": "3.73", "empty controls": "6/9 (3.99)"}
{"changes": "Y30I/G49N/N51P", "replicates, log10 nM": "ND / ND / ND", "mean, log10 nM": "ND", "empty controls": "2/9 (4.63)"}
{"changes": "N33Y/S55F/F95C", "replicates, log10 nM": "ND / 5.60 / ND", "mean, log10 nM": "5.60", "empty controls": "3/9 (4.31)"}
{"changes": "L27Q/Q96W", "replicates, log10 nM": "3.07 / 3.58 / 3.49", "mean, log10 nM": "3.38", "empty controls": "5/9 (4.01)"}
{"changes": "S26C/L27K", "replicates, log10 nM": "ND / ND / 2.97", "mean, log10 nM": "2.97", "empty controls": "3/9 (2.99)"}
{"changes": "G24T/N51V/S93E", "replicates, log10 nM": "2.74 / 4.07 / ND", "mean, log10 nM": "3.41", "empty controls": "7/9 (3.95)"}
{"changes": "S26I/G49N/K50P", "replicates, log10 nM": "5.29 / 2.78 / ND", "mean, log10 nM": "4.03", "empty controls": "0/9"}
{"changes": "G24D/S55V/S93K", "replicates, log10 nM": "ND / ND / ND", "mean, log10 nM": "ND", "empty controls": "3/9 (3.89)"}
{"changes": "G24C/S92D/V97W", "replicates, log10 nM": "4.51 / ND / ND", "mean, log10 nM": "4.51", "empty controls": "0/9"}
{"changes": "G49V/K50T/N51L", "replicates, log10 nM": "4.72 / ND / 4.13", "mean, log10 nM": "4.42", "empty controls": "3/9 (4.26)"}
{"changes": "D25H/Y31N/F95L", "replicates, log10 nM": "2.39 / 2.25 / 2.59", "mean, log10 nM": "2.41", "empty controls": "2/9 (3.38)"}